# Data taken from patent US10011599B2 (priority 2013, dated 2018).
# Experiments:
# A375 cells = assay: cells; settings: Homo sapiens, A-375, 72 h, read-out: A375 XTT IC50 uM
# [1] = tested on: phospho-ERK1/2 in A375 cells; assay: cells; settings: Homo sapiens, A-375, 3 h, read-out: A375 ICW IC50
Compound,IC50 (A375 cells),IC50 [1]
"COCCN1CCC(n2c(C)nc3cnc4cc(F)c(-c5ccc(Oc6ncccn6)cc5Cl)cc4c32)CC1 [Example 2, 8-(2-chloro-4-(pyrimidin-2-yloxy)phenyl)-7-fluoro-1-(1-(2-methoxyethyl)piperidin-4-yl)-2-methyl-1H-imidazo[4,5-c]quinoline]",2.41 µM,3270 nM
"Cc1nc2cnc3cc(F)c(-c4ccc(Oc5ncccn5)cc4Cl)cc3c2n1C1CCN(CCO)CC1 [Example 3, 2-(4-(8-(2-chloro-4-(pyrimidin-2-yloxy)phenyl)-7-fluoro-2-methyl-1H-imidazo[4,5-c]quinolin-1-yl)piperidin-1-yl)ethanol]",0.368 µM,652 nM
"Cc1nc2cnc3cc(F)c(-c4ccc(Oc5ncccn5)cc4Cl)cc3c2n1C1CCN(CC(N)=O)CC1 [Example 13, 2-(4-(8-(2-chloro-4-(pyrimidin-2-yloxy)phenyl)-7-fluoro-2-methyl-1H-imidazo[4,5-c]quinolin-1-yl)piperidin-1-yl)acetamide]",1.11 µM,1880 nM
"Cc1ccnc(Oc2ccc(-c3cc4c(cc3F)ncc3ncn(C5(C)CCN(CCO)CC5)c34)c(Cl)c2)n1 [Example 15, 2-(4-(8-(2-chloro-4-((4-methylpyrimidin-2-yl)oxy)phenyl)-7-fluoro-1H-imidazo[4,5-c]quinolin-1-yl)-4-methylpiperidin-1-yl)ethanol]",0.088 µM,118 nM
"Cc1nc2cnc3cc(F)c(-c4ccc(Oc5ncccn5)cc4Cl)cc3c2n1C1CCN(C(C)CO)CC1 (centres unmarked) [Example 16, 2-(4-(8-(2-chloro-4-(pyrimidin-2-yloxy)phenyl)-7-fluoro-2-methyl-1H-imidazo[4,5-c]quinolin-1-yl)piperidin-1-yl)propan-1-ol]",0.587 µM,667 nM
"CC1(n2cnc3cnc4cc(F)c(-c5ccc(Oc6ncccn6)cc5Cl)cc4c32)CCN(CCO)CC1 [Example 17, 2-(4-(8-(2-chloro-4-(pyrimidin-2-yloxy)phenyl)-7-fluoro-1H-imidazo[4,5-c]quinolin-1-yl)-4-methylpiperidin-1-yl)ethanol]",0.132 µM,224 nM
"COc1cc(Oc2nccc(C)n2)ccc1-c1cc2c(cc1F)ncc1ncn(C3(C)CCN(CCO)CC3)c12 [Example 18, 2-(4-(7-fluoro-8-(2-methoxy-4-((4-methylpyrimidin-2-yl)oxy)phenyl)-1H-imidazo[4,5-c]quinolin-1-yl)-4-methylpiperidin-1-yl)ethanol]",0.14 µM,247 nM
"COc1cc(Oc2ncccn2)ccc1-c1cc2c(cc1F)ncc1ncn(C3(C)CCN(CCO)CC3)c12 [Example 19, 2-(4-(7-fluoro-8-(2-methoxy-4-(pyrimidin-2-yloxy)phenyl)-1H-imidazo[4,5-c]quinolin-1-yl)-4-methylpiperidin-1-yl)ethanol]",0.643 µM,1700 nM
COc1cc(Oc2nccc(C)n2)ccc1-c1cc2c(cc1F)ncc1ncn(C3(C)CCN(C(=O)C(C)O)CC3)c12 (centres unmarked) [Example 20],0.683 µM,669 nM
"Cc1ccnc(Oc2ccc(-c3cc4c(cc3F)ncc3ncn(C5(C)CCN(C(=O)C(C)O)CC5)c34)c(Cl)c2)n1 (centres unmarked) [Example 21, 1-(4-(8-(2-chloro-4-((4-methylpyrimidin-2-yl)oxy)phenyl)-7-fluoro-1H-imidazo[4,5-c]quinolin-1-yl)-4-methylpiperidin-1-yl)-2-hydroxypropan-1-one]",0.085 µM,71 nM
"COc1cc(Oc2nccc(C)n2)ccc1-c1cc2c(cc1F)ncc1ncn(C3(C)CCN(C(=O)CO)CC3)c12 [Example 24, 1-(4-(7-fluoro-8-(2-methoxy-4-((4-methylpyrimidin-2-yl)oxy)phenyl)-1H-imidazo[4,5-c]quinolin-1-yl)-4-methylpiperidin-1-yl)-2-hydroxyethanone]",0.161 µM,220 nM
"Cc1nc2cnc3cc(F)c(-c4ccc(Oc5ncccn5)cc4Cl)cc3c2n1C1CCN(CC2COC2)CC1 [Example 25, 8-(2-chloro-4-(pyrimidin-2-yloxy)phenyl)-7-fluoro-2-methyl-1-(1-(oxetan-3-ylmethyl)piperidin-4-yl)-1H-imidazo[4,5-c]quinoline]",1.72 µM,3050 nM
"COc1cc(Oc2ncccn2)ccc1-c1cc2c(cc1F)ncc1nc(C)n([C@H]3CCN(C(=O)CO)C[C@@H]3F)c12 [Example 88, 1-((3S,4S)-3-fluoro-4-(7-fluoro-8-(2-methoxy-4-(pyrimidin-2-yloxy)phenyl)-2-methyl-1H-imidazo[4,5-c]quinolin-1-yl)piperidin-1-yl)-2-hydroxyethanone]",0.108 µM,–
"Cc1nc2cnc3cc(F)c(-c4ccc(Oc5nccc(CO)n5)cc4Cl)cc3c2n1[C@H]1CCN(C(=O)CO)C[C@@H]1F [Example 89, 1-((3S,4S)-4-(8-(2-chloro-4-((4-(hydroxymethyl)pyrimidin-2-yl)oxy)phenyl)-7-fluoro-2-methyl-1H-imidazo[4,5-c]quinolin-1-yl)-3-fluoropiperidin-1-yl)-2-hydroxyethanone]",0.045 µM,–
"Cc1cc(Oc2ncccn2)ccc1-c1cc2c(cc1F)ncc1nc(C)n([C@H]3CCN(C(=O)CO)C[C@@H]3F)c12 [Example 90, 1-((3S,4S)-3-fluoro-4-(7-fluoro-2-methyl-8-(2-methyl-4-(pyrimidin-2-yloxy)phenyl)-1H-imidazo[4,5-c]quinolin-1-yl)piperidin-1-yl)-2-hydroxyethanone]",0.02 µM,–
"Cc1nc2cnc3cc(F)c(-c4ccc(Oc5ncccn5)cc4F)cc3c2n1[C@H]1CCN(C(=O)CO)C[C@@H]1F [Example 92, 1-((3S,4S)-3-fluoro-4-(7-fluoro-8-(2-fluoro-4-(pyrimidin-2-yloxy)phenyl)-2-methyl-1H-imidazo[4,5-c]quinolin-1-yl)piperidin-1-yl)-2-hydroxyethanone]",0.135 µM,–
"CC(=O)N1CC[C@H](n2c(C)nc3cnc4cc(F)c(-c5ccc(Oc6ncccn6)cc5Cl)cc4c32)[C@@H](F)C1 [Example 93, 1-((3S,4S)-4-(8-(2-chloro-4-(pyrimidin-2-yloxy)phenyl)-7-fluoro-2-methyl-1H-imidazo[4,5-c]quinolin-1-yl)-3-fluoropiperidin-1-yl)ethanone]",0.061 µM,–
"Cc1nc2cnc3cc(F)c(-c4ccc(Oc5ncccn5)cc4Cl)cc3c2n1[C@H]1CCN(C(N)=O)C[C@@H]1F [Example 94, (3S,4S)-4-(8-(2-chloro-4-(pyrimidin-2-yloxy)phenyl)-7-fluoro-2-methyl-1H-imidazo[4,5-c]quinolin-1-yl)-3-fluoropiperidine-1-carboxamide]",0.005 µM,–
"Cc1nc2cnc3cc(F)c(-c4ccc(Oc5ncccn5)cc4Cl)cc3c2n1[C@H]1CCN(C(=O)[C@H](C)O)C[C@@H]1F [Example 95, (S)-1-((3S,4S)-4-(8-(2-chloro-4-(pyrimidin-2-yloxy)phenyl)-7-fluoro-2-methyl-1H-imidazo[4,5-c]quinolin-1-yl)-3-fluoropiperidin-1-yl)-2-hydroxypropan-1-one]",0.031 µM,–
"Cc1nc2cnc3cc(F)c(-c4ccc(Oc5ncccn5)cc4Cl)cc3c2n1[C@H]1CCN(C(=O)CCO)C[C@@H]1F [Example 98, 1-((3S,4S)-4-(8-(2-chloro-4-(pyrimidin-2-yloxy)phenyl)-7-fluoro-2-methyl-1H-imidazo[4,5-c]quinolin-1-yl)-3-fluoropiperidin-1-yl)-3-hydroxpropan-1-one]",0.557 µM,–
